The test has as its system Drosophila SCA1 polyglutamine model, toxicity suppression. Kind of test: Reduction of SCA1 polyglutamine toxicity, EC50 from dose response in whole drosophila (AID 1597).

Records with an inconclusive call do not appear.

Broadly, the EC50 is the concentration giving half of the maximal effect. Turning to `CN(CCCl)CCCl`, the 50% effective concentration (EC50) is 2.5 µM.

The record behind these values is PubChem BioAssay AID1597 (NINDS Approved Drug Screening Program, 2009).
